Results as given in patent publication EP0845217A1, “Inhibiting undesirable taste in oral compositions” (priority 1996, dated 1998).

Chains of the proteins cited; added tags and fusions are not shown. Lines headed by an entry give the natural chain unless they say otherwise; changes in a name come on top. Residues count along the entry.
UniProt P15273: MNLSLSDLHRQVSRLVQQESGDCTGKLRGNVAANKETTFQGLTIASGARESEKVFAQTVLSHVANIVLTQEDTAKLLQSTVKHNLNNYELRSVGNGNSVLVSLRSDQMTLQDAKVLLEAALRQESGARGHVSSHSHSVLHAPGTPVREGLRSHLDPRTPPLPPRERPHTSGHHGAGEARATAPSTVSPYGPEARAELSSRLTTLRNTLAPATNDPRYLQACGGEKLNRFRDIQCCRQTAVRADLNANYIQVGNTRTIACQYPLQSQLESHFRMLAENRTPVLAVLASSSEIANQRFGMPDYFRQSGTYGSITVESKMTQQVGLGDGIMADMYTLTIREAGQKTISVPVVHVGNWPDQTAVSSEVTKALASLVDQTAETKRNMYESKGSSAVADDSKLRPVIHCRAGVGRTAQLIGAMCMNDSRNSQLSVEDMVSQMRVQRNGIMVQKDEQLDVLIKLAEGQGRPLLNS
UniProt P19111, 20-506: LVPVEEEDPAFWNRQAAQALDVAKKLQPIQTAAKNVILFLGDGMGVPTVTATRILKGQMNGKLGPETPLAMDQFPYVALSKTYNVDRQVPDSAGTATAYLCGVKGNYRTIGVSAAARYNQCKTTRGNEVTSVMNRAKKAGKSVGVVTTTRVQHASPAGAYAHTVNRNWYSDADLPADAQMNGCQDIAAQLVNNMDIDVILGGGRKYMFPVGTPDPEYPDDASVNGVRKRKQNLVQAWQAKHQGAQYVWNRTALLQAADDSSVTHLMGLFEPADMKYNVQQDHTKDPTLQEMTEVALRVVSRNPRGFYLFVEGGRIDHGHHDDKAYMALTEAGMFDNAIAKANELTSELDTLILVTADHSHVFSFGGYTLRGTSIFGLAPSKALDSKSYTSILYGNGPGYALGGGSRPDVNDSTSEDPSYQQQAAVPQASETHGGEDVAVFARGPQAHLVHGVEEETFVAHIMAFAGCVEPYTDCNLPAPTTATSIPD

Key:
[1] = target: protein tyrosine phosphatase (Yersinia enterocolitica, UniProt P15273); assay: Protein tyrosine phosphatase enzyme kinetics with PNPP substrate; assay type: biochemical; settings: 37°C, pH 7.5
Method: Protein tyrosine phosphatase, a tyrosine phosphatase, is shown to be inhibited by VMP, EMP, and ThMP. Enzyme kinetics are done using purified protein tyrosine phosphatase from the bacteria, Yersinia enterocolitica, recombinant form, with PNPP as the substrate. The enzyme kinetics experiments are done similarly to the kinetics experiments for alkaline phosphatase and acid phosphatase described above.
Specifically, the enzyme reaction is done in a volume of 200 ul containing 120 ng of tyrosine phosphatase, 0.2-1.0 mM PNPP, and 0-0.5 mM VMP, EMP or ThMP. Each final reaction mixture contains 20 mM Tris, 0.1 % beta-mercaptoethanol, and 0.1% bovine serum albumin at pH 7.5. The ionic strength of each reaction mixture is the same and is balanced by the addition of the appropriate amount of NaCl. Activity of this enzyme is extremely sensitive to ionic strength. Each reaction is begun with the addition of tyrosine phosphatase. The formation of PNP is monitored by measuring the OD405/490 at 30 second intervals over a 30 minute period. The enzyme velocity is linear over this time period under these conditions. The Ki values are calculated as described above for alkaline phosphatase (Table 2).

alkaline phosphatase = alkaline phosphatase (Bos taurus, UniProt P19111); assay type: biochemical, bovine; settings: PNPP substrate; pH 9.8; room temperature
Method: Enzyme kinetics experiments are done using purified alkaline phosphatase from bovine intestine and the substrate para-nitrophenyl phosphate (PNPP). The formation of colored para-nitrophenol (PNP) from colorless PNPP is followed by measuring the color formation in the presence of inhibitor at several concentrations.
Specifically, enzyme reactions are done in a volume of 200 ul containing 12.5 mU/ml alkaline phosphatase, PNPP at concentrations between 0.5-200 mM, and an inhibitor at concentrations between 0-100 mM. […] Phosphoserine is the natural substrate for this enzyme. The final buffer solution is 0.9 M diethanolamine and 0.5 mM […], pH 9.8, mixed 3:1 (v:v) with water. Reactions are done in a 96-well microtiter plate. The enzyme reaction is initiated by the addition of the enzyme. Each reaction mixture is done in triplicate. The enzyme reaction is monitored by measuring the optical density (OD) at 405 nm, with a reference OD of 490 nm. The OD's are read every 30 seconds over a 15 minute period at room temperature. PNP concentration is determined based on a standard curve correlating OD405/490 vs. PNP concentration. […] The data is then transformed and plotted as the Kmapp / Vmax. vs. inhibitor concentration. From these plots the dissociation constant of the enzyme-inhibitor complex, Ki, is determined. The x-intercept on this plot equals (-Ki). […]

Work on vanillylmonophosphate [VMP] yielded a Ki [1] of 1.04 mM and a Ki (alkaline phosphatase) of 3.99 mM.
